# scFv variants of Ab-14 (heavy chain) against a SARS-CoV-2 spike peptide

All variants were tested on one target, the spike HR2 peptide PDVDLGDISGINAS (SARS-CoV-2).

Parent: Ab-14, a human scFv built as VH, a (GGGGS)3 linker, VL. Only the CDRs of the heavy chain vary.
VH: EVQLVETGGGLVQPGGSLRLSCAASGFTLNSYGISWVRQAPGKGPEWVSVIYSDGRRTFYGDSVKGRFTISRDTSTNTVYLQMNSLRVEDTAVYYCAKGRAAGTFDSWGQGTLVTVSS
VL: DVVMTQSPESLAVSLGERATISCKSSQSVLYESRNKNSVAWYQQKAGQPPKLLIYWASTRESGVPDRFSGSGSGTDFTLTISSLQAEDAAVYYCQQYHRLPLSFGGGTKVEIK

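This is the validation round: designs drawn from the data on random variants, tested in the same kind of assay. Several design methods are mixed in this list. AlphaSeq pools MATa yeast showing the antibodies with MATalpha yeast showing the peptide. Pairs that bind mate more often; barcode pairs of the diploids are counted by sequencing. Scores were corrected for input abundance and mapped to Kd with protein pairs of known affinity run in the same pool. The assay was run in six technical replicates.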

Variants are written as CDR1, CDR2 and CDR3 of the heavy chain (limits as in the source). Parent: GFTLNSYGIS, VIYSDGRRTFYGDSVK, GRAAGTFDS. Variants here have more than six changes. Affinities are written as log10 Kd with Kd in nM; a lower number is a better binder. The mean shown is taken over the replicates in which the pair was detected. An entry "nd" has no value in the source: the pair was not observed among the diploids in any replicate. This suggests poor binding but is not conclusive. The range of this assay differs from that of the first round, and the authors advise against merging the two. In the paper, a design with two or fewer of six values counts as a poor binder. Nonspecific signal, from three strains lacking the peptide, appeared in 1% of pairings of all heavy chain designs, centred on 2.08 (5% of these signals below 0.84); values are not corrected for it. For each scFv, signals with the empty controls are counted beside the result.

For GFDLEEYGIS / VIYADGKRVAYQDAVK / GKHGGMFMV, the assay gave 2.41 (5 of 6 replicates; controls 0 of 18). The variant GKALDEYGIS / VIYADGQRVFYSDTVK / GNQGFTVDV gave nd (0 of 6 replicates; controls 0 of 18). With GFDLNEYGIS / VIYADGMRTAYADDVK / GETAGTFDQ the result was 0.28 (6 of 6 replicates; controls 0 of 18). For GFDLDEYGIS / VIYADGMRTAYADDVK / GNTAGTFDV, the assay gave -0.42 (6 of 6 replicates; controls 0 of 18). With GFDLNEYGIS / VIYADGKRTAYVDSVK / GNQAGTFDM the result was -0.65 (4 of 6 replicates; controls 0 of 18). For GKDLEEYGIS / VIYADGRRSDYTDNVK / GHNGNIFMS, the assay gave nd (0 of 6 replicates; controls 0 of 18). The variant GFDLNEYGIS / VIYADGQRTFYADSVK / GEYAGTFDI showed 0.49 (5 of 6 replicates; controls 0 of 18).

The variant GFDLNEYGIS / VIYADGRRTFYADSVK / GQLAGTFDL gave -0.78 (6 of 6 replicates; controls 1 of 18). The variant GFDLDEYGIS / VIYADGMRTAYTDKVK / GRETDTNVV gave nd (0 of 6 replicates; controls 0 of 18). For GFDLNEYGIS / VIYADGMRTFYIDSVK / GENAGTFDV, the assay gave -0.50 (6 of 6 replicates; controls 0 of 18). With GDNLEEYGIS / VIYADGFRTHYAEKVK / GQQAGFFIK the result was nd (0 of 6 replicates; controls 0 of 18). The variant GFDLDEYGIS / VIYADGMRTFYADDVK / GNNAGTFDV showed 0.01 (6 of 6 replicates; controls 0 of 18). For GFNLNEYGIS / VIYADGMRASYRNDVK / GNISGDFML, the assay gave 1.84 (5 of 6 replicates; controls 1 of 18). The variant GFDLNEYGVS / VIYADGQRTQYTDKVK / GSFSAAITN gave nd (0 of 6 replicates; controls 0 of 18).

With GFDLDEYGIS / VIYADGKRTFYADSVK / GNTAGTFDV the result was -0.84 (6 of 6 replicates; controls 0 of 18). The variant GENINEYGIS / VIYADGRRTAYAQDVK / GQAGGIIDV gave nd (0 of 6 replicates; controls 0 of 18). For GFDLNEYGIS / VIYADGRRTAYTDSVK / GNNAGTFDQ, the assay gave -0.51 (6 of 6 replicates; controls 0 of 18). The variant GFDLNEYGIS / VIYADGRRTSYADSVK / GENAGTFDV gave 0.10 (6 of 6 replicates; controls 1 of 18). The variant GFNLDEYGVS / VIYADGKRCQYANTVK / GELAGFFML gave nd (0 of 6 replicates; controls 0 of 18). The variant GFDLNEYGIS / VIYADGMRTAYSDSVK / GEAAGTFDV gave -0.94 (6 of 6 replicates; controls 0 of 18). For GFQLDEYGIS / VIYADGLRVYYAQNVK / GYNSFDIND, the assay gave nd (0 of 6 replicates; controls 0 of 18).

The variant GFDLDEYGIS / VIYADGRRTYYADSVK / GEVAGTFDV gave -0.15 (6 of 6 replicates; controls 0 of 18). For GFDLDEYGIS / VIYADGMRTAYADDVK / GENAGTFDI, the assay gave -0.46 (6 of 6 replicates; controls 0 of 18). The variant GFDLNSYGIP / VIPSDGRTTFYGDSHK / GRAAGWFAS gave nd (0 of 6 replicates; controls 1 of 18). The variant GFDLNEYGIS / VIYADGMRTAYSDSVK / GTNAGTFDL showed 0.98 (2 of 6 replicates; controls 0 of 18). For GFDLNEYGIS / VIYADGRRTFYADSVK / GNQAGTFNS, the assay gave -0.09 (6 of 6 replicates; controls 1 of 18). With GFDLDEYGIS / VIYADGMRTAYADDVK / GSNAGTFDV the result was -0.30 (6 of 6 replicates; controls 0 of 18). With GFDLDEYGIS / VIYADGMRTFYADSVK / GNQAGTFDL the result was -0.34 (6 of 6 replicates; controls 1 of 18).

The variant GQSLNEYGIS / VIYADGHRKMYANDVK / GKIGGIFED showed nd (0 of 6 replicates; controls 0 of 18). For GFDLDEYGIS / VIYADGKRTYYADSVK / GENAGTFDV, the assay gave 0.26 (6 of 6 replicates; controls 0 of 18). The variant GFDLEKYGIS / VIYADGQRVEYDSSVK / GENAGYFMD showed nd (0 of 6 replicates; controls 0 of 18). With GFDLNEYGIS / VIYADGVRTAYADSVK / GNEAGTFDI the result was -0.13 (6 of 6 replicates; controls 2 of 18). The variant GFDLNEYGIS / VIYADGRRTAYVDSVK / GGNAGFFDI showed 2.20 (1 of 6 replicates; controls 1 of 18). With GFDLEEYGIS / VIYADGKRTFYADKVK / GENAGTFDI the result was -0.32 (6 of 6 replicates; controls 0 of 18). The variant GFDLNEYGIS / VIYADGRRTFYADSVK / GEEAGTFDV showed -1.14 (6 of 6 replicates; controls 0 of 18).

The variant GFDLNEYGIS / VIYADGMRTAYADKVK / GNNAGTFDV gave -0.47 (6 of 6 replicates; controls 0 of 18). The variant GFDLNEYGIS / VIYADGMRTSYADDVK / GNVAGTFDQ gave -0.03 (6 of 6 replicates; controls 0 of 18). For GFDLNEYGIS / VIYADGMRTAYADDVK / GETAGTFDI, the assay gave -0.57 (6 of 6 replicates; controls 0 of 18). With GFDIEEFGIS / VIYADGRQVAYAQKFK / GTIAGTFVD the result was 1.37 (2 of 6 replicates; controls 0 of 18). The variant GFDLNEYGIS / VIYADGMRTAYIDSVK / GEVAGTFDA showed -0.89 (6 of 6 replicates; controls 0 of 18). The variant GFDLNEYGIS / VIYADGMRTAYADSVK / GQTAGTFDT showed -0.36 (6 of 6 replicates; controls 0 of 18). With GFDLNEYGIS / VIYADGRRTFYTDSVK / GETAGTFDV the result was -0.44 (6 of 6 replicates; controls 0 of 18).

The variant GFDLNEYGIS / VIYADGVRTFYVDSVK / GETAGTFEI showed -0.24 (6 of 6 replicates; controls 1 of 18). The variant GFDLAEYGVS / VIYADGKRTEYSDHVK / GENAGFFDL showed nd (0 of 6 replicates; controls 0 of 18). The variant GFDLNEYGIS / VIYADGMRTFYADSVK / GQNAGTFDQ showed 0.66 (6 of 6 replicates; controls 0 of 18). With GFDLEDYGIS / VIYADGRRTAYADSVK / GEIAGTFDV the result was -0.32 (6 of 6 replicates; controls 0 of 18). For GINLEEYGVS / VIYADGRRTAYTNSVK / GGNSVTTGV, the assay gave 0.77 (6 of 6 replicates; controls 0 of 18). For GYDLQDYGIS / VIYADGRRTAFSHKVK / GQIAGTFNF, the assay gave 1.68 (1 of 6 replicates; controls 0 of 18). The variant GFDLEDYGIS / VIYADGRRTVYADSVK / GEAAGTFDL showed 0.46 (6 of 6 replicates; controls 0 of 18).

The variant GMDLDEYGIS / VIYADGSRVFYVQDVK / GTVDTVGDV gave nd (0 of 6 replicates; controls 0 of 18). The variant GFNLNEYGIS / VIYADGRRTFYADSVK / GGVAGTFDV gave -0.15 (5 of 6 replicates; controls 0 of 18). The variant GFDLNEYGIS / VIYADGQRTYYADSVK / GENAGTFDV gave -0.36 (6 of 6 replicates; controls 0 of 18).

Source: Li et al. 2023 (doi:10.1038/s41467-023-39022-2), MIT Lincoln Laboratory and A-Alpha Bio; data file from the FLAb repository.